Experimental data published in PubChem BioAssay AID2417 (National Center for Advancing Translational Sciences (NCATS), 2010).
The list shows a part of the results, in another mix than the full data. Records with an inconclusive call do not appear. Active and inactive are the calls of the source.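 Rule for the calls: active = readout at or below -70, meaning at least 70% loss of cells showing the perinucleolar compartment, a nuclear body marking cancer cells; inconclusive = readout between -30 and a set limit; inactive = the rest.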

experiment: High Content Assay for Compounds that inhibit the Assembly of the Perinucleolar Compartment; details: PC3M PTB-GFP, PNC prevalence imaging, 16 h; at 10 µM; active compounds read low
From the text: High Content Assay for Compounds that inhibit the Assembly of the Perinucleolar Compartment NIH Chemical Genomics Center [NCGC] NIH Molecular Libraries Probe Centers Network [MLPCN] MLPCN Grant: MH082371-01A2 Assay Submitter (PI): Sui Huang, Northwestern University, Feinberg School of Medicine, Cell and Molecular Biology, Chicago, Illinois. The perinucleolar compartment (PNC) is a non-membrane-bound nuclear subdomain that is associated with but structurally distinct from the nucleolus. The PNC is a heritable trait, in which the number of PNCs per cell in daughter cells often mimics that of their mother cells. The PNC is heterogeneous in shape, is stable through interphase, disassembles during mitosis, and reassembles in early G1. The PNC is concentrated with newly synthesized RNA polymerase III (pol III) RNAs (MRP RNA, RNAse P H1 RNA, hY RNAs[hY1, 2, 5], Alu RNA, and SRP [7SL] RNA) and RNA binding proteins (nucleolin, PTB, CUG-BP, KSRP, Raver1, Raver2, and Rod). […] Extensive in vitro studies have shown that the PNC is unique to tumor cells and preferentially forms in tumor cells derived from solid tissues. Examination of cancer cell lines from various origins and malignant capacities has shown that PNC prevalence correlates with the malignancy of tumors and has the potential to be developed as a pan-cancer prognostic marker. […] Although the PNC is associated with a DNA locus and a handful of components have been identified, much remains to be investigated regarding the structure and function of the PNC and its mechanistic link to cancer. We have previously shown that PNC prevalence reduction is a valid strategy to identify compounds that can be used to study the structure and function of the PNC. It is necessary, however, to create a screening platform that is able to test a large number of compounds in an automated fashion. Here we report the development and robustness of an automated whole-cell phenotypic image-based screening assay that is capable of identifying such compounds.
PNC High Content Imaging Assay Procedure: 1. Cells at a density of 75-90% confluency in T175 flasks were harvested using 7 ml TrypLE Express cell dissociation reagent. After dissociation (5 minutes room temperature incubation) 10 ml of complete media was added to the TrypLE/cell suspension. The liquid was transferred to a 50 ml Conical tube and cells were pelleted at 1000 RPM for 5 min. Supernatant was removed and cells were resuspended to a final density of 150-200 cells/ul in complete media. 2. Cells were plated in 5 ul volume (750-1000 cells/well) into 1536 well Black uclear Aurora Low Base plates and allowed to recover and adhere at 37 C in a humidified 5% CO2 incubator for 4 hours. 3. After 4 hour incubation, compound libraries (23 nl of […] in columns 5-48) were transferred to the plates in duplicate using a 1536 well pintool. Camptothecin positive control (59 uM final) was added to column 2 and 1:3 dilutions of camptothecin was added to column 3. DMSO negative controls were present in columns 1 and 4. 4. After a 16 hour incubation in the 37 C incubator, cells were fixed by the addition of 4 ul of 6% EM grade paraformaldehyde (containing 0.1% triton X 100) directly to the cells. The plates were incubated at room temperature for 20 minutes. The liquid was removed using a 32 channel Kalypsys aspirator and the fixed cells were washed twice with 5 ul PBS followed by a final addition of 5 ul PBS containing 1 ug/ml Hoechst 33342. 5. Fixed plates were sealed and sotred at 4C until imaged. 6. Plates were imaged on an InCell 1000 automated microscope using a 20 x objective, a standard FITC filter set, no camera binning, and an exposure time of ~100-150 msec/well. 7. Data analysis. PNC prevalence was determined using the Multitarget analysis module from InCell Workstation software (V3.5 ) and analysis was run on a quad core workstation using the Incell Developer Toolbox (V1.7). […]

Row | Compound | activity change (PNC), negative = inhibition
1 | Cc1cc(SC(NC(=O)c2ccccc2)C(Cl)(Cl)Cl)nc(C(C)C)n1 (stereo unspecified) | inactive: -26.5%
2 | O=C(COc1ccccc1)OC1CN2CCC1CC2 (stereo unspecified) | inactive: -8.79%
3 | O=C(OC1CN2CCC1CC2)C12CC3CC(CC(C3)C1)C2 (stereo unspecified) | inactive: 6.46%
4 | Cc1ccc2nc3c(c(C)c2c1)CC(C(Cl)Cl)S3 (stereo unspecified) | inactive: -6.59%
5 | CCN(CC)C(=S)SC(NC=O)C(Cl)(Cl)Cl (stereo unspecified) | inactive: 15%
6 | ClCCSc1nnc(-c2cccnc2)o1 | inactive: -28.8%
7 | CCOP1(=S)c2c(C)nn(CCC#N)c2N=C(c2ccccc2F)N1C (stereo unspecified) | inactive: -6.28%
8 | O=[N+]([O-])c1ccc2c(c1)nnn2O | inactive: -1.67%
9 | Cc1cccc(OCC(=O)OC2CN3CCC2CC3)c1 (stereo unspecified) | inactive: -3.26%
10 | COc1cc(C2NCCC3(OCCO3)C2(C)C)cc(OC)c1OC (stereo unspecified) | inactive: 4.48%
11 | Clc1n[nH]nc1-c1nn[nH][15n]1 | inactive: -14.4%
12 | O=P1(Nc2ccccn2)COc2ccccc2OC1 | inactive: 8.01%
13 | O=P1(Nc2ccc(Br)cn2)COc2ccccc2OC1 | inactive: -14.2%
14 | Cc1ccc(OCC(=O)OC2CN3CCC2CC3)cc1 (stereo unspecified) | inactive: 9.41%
15 | O=P1(Nc2ncccn2)COc2ccccc2OC1 | inactive: -27.2%
16 | O=C(OC1CN2CCC1CC2)c1cccc(Cl)c1 (stereo unspecified) | inactive: 31.8%
17 | c1nnnn1CCn1cnnn1 | inactive: -6.17%
18 | CC(C)C(=O)NC(Sc1ccccc1)C(Cl)(Cl)Cl (stereo unspecified) | inactive: -10.3%

Row | Compound | activity change (PNC), negative = inhibition
19 | O=P(Nc1nccs1)(c1ccccc1)c1ccccc1 | inactive: 10.8%
20 | O=P1(Nc2nc3ccc(Cl)cc3s2)COc2ccccc2O1 (stereo unspecified) | active: -107%
21 | CCOC(=O)NC(Sc1ccccc1)C(Cl)(Cl)Cl (stereo unspecified) | inactive: -2.09%
22 | CC(=O)NC(SC(=S)N(CC(C)C)CC(C)C)C(Cl)(Cl)Cl (stereo unspecified) | inactive: 9.45%
23 | COC(=O)c1cc2c(s1)N=C(c1ccccc1)N(C)P2(=O)N1CCOCC1 (stereo unspecified) | inactive: 39.4%
24 | CCOP(=O)(Nc1ccccc1)OCC | inactive: 19.1%
25 | Cc1cc(SC(NC(=O)c2ccc(F)cc2)C(Cl)(Cl)Cl)ncn1 (stereo unspecified) | inactive: 2.97%
26 | CCN(N=Nc1nonc1N)c1nonc1N | inactive: 9.18%
27 | CN1CCCC(OC(=O)C(c2ccccc2)c2ccccc2)C1 (stereo unspecified) | active: -109%
28 | Cc1c2non([O-])c-2c(C)[n+](=O)[n+]1[O-] | active: -88.2%
29 | O=C(NC(Sc1ccncn1)C(Cl)(Cl)Cl)c1ccccc1 (stereo unspecified) | inactive: -13.5%
30 | Oc1ccccc1CNc1ccccn1 | inactive: 0.776%
31 | CC(C)CC(=O)NC(Sc1ccc(Cl)cc1)C(Cl)(Cl)Cl (stereo unspecified) | inactive: -9%
32 | CCc1nc2c(n1)c1c(non1O)c1c2no[n+]1[O-] | inactive: -3.64%
33 | O=[N+]([O-])c1cccc2n[nH]nc12 | inactive: 2.34%
34 | CC(=O)N1C2C3N(C(C)=O)C1C1N(C(C)=O)C(C(N1C(C)=O)N3C(C)=O)N2C(C)=O | inactive: 67.9%
35 | CC1CCN(C(=O)Oc2c(Cl)cc(Cl)c3cccnc23)CC1 | inactive: 22.4%
36 | CN(C)C(=O)OCCc1n(C)cc[n+]1C | inactive: 46.8%
